Binding of CDR-mutated scFvs to a peptide of the spike HR2 region

Reference: Li et al. 2023, doi:10.1038/s41467-023-39022-2. File: FLAb, binding data.

All variants were tested on one target, the spike HR2 peptide PDVDLGDISGINAS (SARS-CoV-2).

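Designed CDR sequences, proposed from the first random library and measured here. Group labels follow the data file (En: ensemble of fine-tuned language models; HC: hill climbing; Gen: genetic algorithm; Gibbs: Gibbs sampling; a sequence that several methods proposed may carry one label only). Affinity was read by AlphaSeq, a pooled yeast mating assay with surface-displayed partners. Binding brings cells together so that they mate, and sequencing counts the barcode pairs among the diploids. The ratio of observed to expected reads was calibrated, replicate by replicate, on BCL2-family standards whose Kd was known from biolayer interferometry. Each pool was mated in six replicate cultures.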

The variants keep the light chain, the linker and the frameworks of Ab-14 (scFv order VH, the linker GGGGSGGGGSGGGGS, VL).
VH: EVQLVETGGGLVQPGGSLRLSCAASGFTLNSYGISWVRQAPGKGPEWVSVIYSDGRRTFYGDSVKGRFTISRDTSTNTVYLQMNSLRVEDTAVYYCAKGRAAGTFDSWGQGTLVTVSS
VL: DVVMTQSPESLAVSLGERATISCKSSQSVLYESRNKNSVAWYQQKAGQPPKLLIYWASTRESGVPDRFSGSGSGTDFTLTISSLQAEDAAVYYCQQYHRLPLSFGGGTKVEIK

The parent's heavy chain CDRs are GFTLNSYGIS, VIYSDGRRTFYGDSVK, GRAAGTFDS; each variant's own CDRs replace them letter for letter.
This list holds designs with more than six substitutions.
The Kd shown is the geometric mean over detected replicates; a lower Kd is a better binder.
An entry "no signal" has no value in the source: the pair was not observed among the diploids in any replicate. This suggests poor binding but is not conclusive.
Values of this round are not directly comparable with the first-round values of the same sequences.
Empty control strains, which show no peptide, gave a signal in 1% of pairings with all heavy chain designs; the median was 120 nM and 95% of these signals were weaker than 7.0 nM. No background was subtracted. For each scFv, signals with the empty controls are counted beside the result.
In the paper, a design with two or fewer of six values counts as a poor binder.

With GFDLNEYGIS / VIYADGRRTFYTDSVK / GANAGTFDQ [En_HC] the result was 210 pM (6 of 6 replicates; controls 0 of 18).
With GFSLDEYGIS / VIYADGKRTFYQDDVK / GNVAGTFDV [En_HC] the result was 440 pM (6 of 6 replicates; controls 0 of 18).
With GFDLNEYGIS / VIYADGRRTFYADNVK / GEVAGTFFV [En_HC] the result was 1.9 nM (6 of 6 replicates; controls 0 of 18).
With GFDLNEYGIS / VIYADGSRTAYADDVK / GENAGTFDM [En_Gen] the result was 870 pM (6 of 6 replicates; controls 0 of 18).
With GFDLNEYGIS / VIYADGVRTAYSDSVK / GENAGTFDQ [En_Gen] the result was 550 pM (6 of 6 replicates; controls 0 of 18).
With GFDLNEYGIS / VIYADGMRTQYADSVK / GNVAGTFDL [En_Gen] the result was 770 pM (6 of 6 replicates; controls 0 of 18).
With GFQIDEYGIS / VIYADGKRSMYTDKVK / GVDADTMMV [En_Gibbs] the result was no signal (0 of 6 replicates; controls 0 of 18).
With GFDLNEYGIS / VIYADGRRKYYADSVK / GENAGTFDV [En_HC] the result was 270 pM (6 of 6 replicates; controls 1 of 18).
With GFTLDEYGIS / VIYADGQRTAYTDDVK / GQYGGIGYG [En_Gibbs] the result was no signal (0 of 6 replicates; controls 0 of 18).
With GFDLNEYGIS / VIYADGVRTYYADSVK / GNVAGTFDM [En_Gen] the result was 440 pM (6 of 6 replicates; controls 1 of 18).
With GFDLDEYGIS / VIYADGQRTFYADSVK / GTLAGTFDA [En_HC] the result was 24 nM (5 of 6 replicates; controls 0 of 18).
With GFDLNEYGIS / VIYADGRRTFYVDSVK / GESAGTFDQ [En_HC] the result was 370 pM (6 of 6 replicates; controls 0 of 18).
With GFDLDEYGIS / VIYADGRRTFYIDSVK / GETAGTFDS [En_HC] the result was 480 pM (6 of 6 replicates; controls 0 of 18).
With GFDLNEYGIS / VIYADGKRTAYADSVK / GANAGTFDL [En_Gen] the result was 150 pM (6 of 6 replicates; controls 0 of 18).
With GFFLDEYGIS / VIYADGQRTAYKDKVK / GSDTGLGWF [En_Gibbs] the result was no signal (0 of 6 replicates; controls 0 of 18).
With GFSLDEYGIS / VIYADGRRTFYTDSVK / GGNAGTFDV [En_HC] the result was 160 pM (6 of 6 replicates; controls 0 of 18).
With GNTLNEYGIS / VIYADGIRKAYSDNVK / GMNGDTFTQ [En_Gibbs] the result was no signal (0 of 6 replicates; controls 0 of 18).
With GRDLESYGIS / VIYADGRRKAYHDSVK / GTNGGVSFV [En_Gibbs] the result was no signal (0 of 6 replicates; controls 0 of 18).
With GFDLNEYGIS / VIYADGRRTSYIDSVK / GEAAGTFNV [En_HC] the result was 320 pM (6 of 6 replicates; controls 0 of 18).
With GFGLDEYGIS / VIYADGMRSNYANSVK / GYQAGVISV [En_Gibbs] the result was no signal (0 of 6 replicates; controls 0 of 18).
With GFDLNEYGIS / VIYADGMRTAYTDDVK / GNQAGTFDV [En_Gen] the result was 800 pM (6 of 6 replicates; controls 0 of 18).
With GFDLDEYGIS / VIYADGMRTYYADDVK / GNVAGTFDL [En_Gen] the result was 360 pM (6 of 6 replicates; controls 0 of 18).
With GFDLNEYGIS / VIYADGMRTAYADDVK / GNVAGTFDA [En_Gen] the result was 300 pM (6 of 6 replicates; controls 0 of 18).
With GFDLNEYGIS / VIYADGVRTSYKDSVK / GEAAGTFDV [En_HC] the result was 460 pM (6 of 6 replicates; controls 0 of 18).
With GFDLEEYGIS / VIYADGRRTFYSDSVK / GEVAGTFDV [En_HC] the result was 210 pM (6 of 6 replicates; controls 0 of 18).
With GFNLDEYGIS / VIYADGYRRMYAQDVK / GMNSGFGGT [En_Gibbs] the result was no signal (0 of 6 replicates; controls 0 of 18).
With GFDLNEYGIS / VIYADGLRTFYTDSVK / GEFAGTFDT [En_HC] the result was 460 pM (6 of 6 replicates; controls 0 of 18).
With GFNLDEYGIS / VIYADGRRTFYADNVK / GEAAGTFDI [En_HC] the result was 440 pM (6 of 6 replicates; controls 0 of 18).
With GFSLDEYGIS / VIYADGARAFYTNKVK / GVEVGDLIT [En_Gibbs] the result was no signal (0 of 6 replicates; controls 0 of 18).
With GFDLDEYGIS / VIYADGKRTAYSDSVK / GNQAGTFDM [En_Gen] the result was 420 pM (6 of 6 replicates; controls 0 of 18).
With GFDLNEYGIS / VIYADGKRTFYADDVK / GEVAGTFDL [En_HC] the result was 1.6 nM (6 of 6 replicates; controls 0 of 18).
With GKDLQEYGIS / VIYADGMRVAYTDSVK / GTQGISNIE [En_Gibbs] the result was no signal (0 of 6 replicates; controls 1 of 18).

Picked from the list: the 5 lowest averages where every replicate gave a value.

CDR-H1	CDR-H2	CDR-H3	group	Kd (apparent)	replicates with signal	empty controls
GFDLNEYGIS	VIYADGKRTAYADSVK	GANAGTFDL	En_Gen	150 pM	6/6	0/18
GFSLDEYGIS	VIYADGRRTFYTDSVK	GGNAGTFDV	En_HC	160 pM	6/6	0/18
GFDLNEYGIS	VIYADGRRTFYTDSVK	GANAGTFDQ	En_HC	210 pM	6/6	0/18
GFDLEEYGIS	VIYADGRRTFYSDSVK	GEVAGTFDV	En_HC	210 pM	6/6	0/18
GFDLNEYGIS	VIYADGRRKYYADSVK	GENAGTFDV	En_HC	270 pM	6/6	1/18